Molecular target: CCR2 (Homo sapiens (Human), UniProt P41597)
Experiment: MCP-1 Receptor Binding Assay in THP-1 Cells
Conditions: 0.5 nM 125I labeled MCP-1, THP-1 cells, 2 hours at 30° C.; read-out: Inhibition of MCP-1 Binding IC50, CCR2 Binding
Description: Human monocytic cell line THP-1 cells were obtained from American Type Culture Collection (Manassas, Va., USA). […] The cell density was maintained […].
1 μM cold MCP-1 was used for nonspecific binding.

Protein sequences, listed by entry. Tags and fused reporters are not part of them. Lines headed by an entry give the natural chain unless they say otherwise; changes in a name come on top.
UniProt P41597: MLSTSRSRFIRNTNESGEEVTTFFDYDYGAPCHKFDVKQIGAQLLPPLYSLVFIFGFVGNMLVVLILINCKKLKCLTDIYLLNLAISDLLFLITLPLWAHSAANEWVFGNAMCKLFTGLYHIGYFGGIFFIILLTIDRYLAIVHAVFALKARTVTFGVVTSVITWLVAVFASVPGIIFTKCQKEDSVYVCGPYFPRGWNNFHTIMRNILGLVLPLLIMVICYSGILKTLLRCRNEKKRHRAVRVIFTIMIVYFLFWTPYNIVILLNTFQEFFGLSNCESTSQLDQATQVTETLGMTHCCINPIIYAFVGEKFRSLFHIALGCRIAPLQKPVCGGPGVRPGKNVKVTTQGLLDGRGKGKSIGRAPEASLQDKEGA

| Compound | IC50 |
| --- | --- |
| O=C(N1CCc2ccc(C(F)(F)F)cc2C1)[C@@]12CCO[C@@H]1C[C@@H](NC1CCOCC1)C2 [Example 8, ((3aS,5S,6aR)-5-((tetrahydro-2H-pyran-4-yl)amino)hexahydro-2H-cyclopenta[b]furan-3a-yl)(7-(trifluoromethyl)-3,4-dihydroisoquinolin-2(1H)-yl)methanone] | 3 nM |
| COC1COCCC1N[C@@H]1C[C@H]2OC(C)C[C@@]2(C(=O)N2CCc3ncc(C(F)(F)F)cc3C2)C1 (stereo partly drawn) [Example 12, ((3aS,5S,6aR)-5-((3-methoxytetrahydro-2H-pyran-4-yl)amino)-2-methylhexahydro-2H-cyclopenta[b]furan-3a-yl)(3-(trifluoromethyl)-7,8-dihydro-1,6-naphthyridin-6(5H)-yl)methanone] | 24 nM |
| CCCC1C[C@@]2(C(=O)N3CCc4ncc(C(F)(F)F)cc4C3)C[C@H](NC3CCOCC3OC)C[C@H]2O1 (stereo partly drawn) [Example 13, ((3aS,5S,6aR)-5-((3-methoxytetrahydro-2H-pyran-4-yl)amino)-2-propylhexahydro-2H-cyclopenta[b]furan-3a-yl)(3-(trifluoromethyl)-7,8-dihydro-1,6-naphthyridin-6(5H)-yl)methanone] | 20 nM |
| COC1COCCC1N[C@@H]1C[C@H]2OC(=O)C[C@@]2(C(=O)N2CCc3ncc(C(F)(F)F)cc3C2)C1 (stereo partly drawn) [Example 21, (3aS,5S,6aR)-5-((3-methoxytetrahydro-2H-pyran-4-yl)amino)-3a-(3-(trifluoromethyl)-5,6,7,8-tetrahydro-1,6-naphthyridine-6-carbonyl)hexahydro-2H-cyclopenta[b]furan-2-one] | 120 nM |

— US8822460B2, “Fused cyclopentyl antagonists of CCR2” (Janssen Pharmaceutica, NV, priority 2012, dated 2014)
